This experiment has as its target T1, human IL-23R (Homo sapiens, UniProt Q5VWK5).
T1 sequence (Q5VWK5 24-353): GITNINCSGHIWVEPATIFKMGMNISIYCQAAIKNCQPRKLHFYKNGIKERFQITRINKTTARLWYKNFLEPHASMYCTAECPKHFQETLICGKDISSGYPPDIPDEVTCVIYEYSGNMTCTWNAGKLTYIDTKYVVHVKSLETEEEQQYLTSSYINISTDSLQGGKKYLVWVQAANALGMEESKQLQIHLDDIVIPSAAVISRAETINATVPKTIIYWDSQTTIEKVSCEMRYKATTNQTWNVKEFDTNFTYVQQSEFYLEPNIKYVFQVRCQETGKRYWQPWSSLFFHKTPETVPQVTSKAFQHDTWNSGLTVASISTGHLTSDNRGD
The experiment can be described thus: IL23-IL23R Competitive Binding ELISA (Human ELISA). The following applies: Table 3H. (An ELISA detects its analyte on a solid surface through an enzyme-linked reagent.)

Consider two molecules from patent US10196424B2, “Oral peptide inhibitors of interleukin-23 receptor and their use to treat inflammatory bowel diseases” (Protagonist Therapeutics, Inc., priority 2014, dated 2019).

As usually defined, the IC50 is the concentration that gives 50% inhibition. As for `CCCCCCCCCCCCCCCC(=O)NCCCC[C@H](NC(=O)[C@H](CCC(=O)O)NC(=O)[C@H](CC(C)C)NC(=O)[C@H](Cc1c[nH]c2ccccc12)NC(=O)[C@H](Cc1ccc(O)cc1)NC(=O)[C@@H]1CSSC[C@H](NC(C)=O)C(=O)N[C@@H](CCC(N)=O)C(=O)N[C@@H]([C@@H](C)O)C(=O)N[C@@H](Cc2c[nH]c3ccccc23)C(=O)N[C@@H](CCC(N)=O)C(=O)N1)C(=O)NCC(N)=O` [compound 517], the IC50 is above 6 µM.
With `CCCCCCCCCCCCCCCC(=O)NCCCC[C@H](NC(=O)[C@H](CCCN)NC(=O)[C@H](Cc1c[nH]c2ccccc12)NC(=O)[C@H](Cc1ccc(O)cc1)NC(=O)[C@@H]1CSSC[C@H](NC(C)=O)C(=O)N[C@@H](CCC(N)=O)C(=O)N[C@@H]([C@@H](C)O)C(=O)N[C@@H](Cc2c[nH]c3ccccc23)C(=O)N[C@@H](CCC(N)=O)C(=O)N1)C(=O)N[C@@H](CC(N)=O)C(=O)NCC(N)=O` [compound 501] the figure was above 6 µM.
